Measured values reported in ChEMBL document CHEMBL5523684, “Development of a tetrahydroindazolone-based HDAC6 inhibitor with in-vivo anti-arthritic activity” (Bioorg Med Chem, 2024).

Amino acid sequences for entries named in this document (tags omitted). A change or cut given only in a name is not applied to a line headed by its entry.
UniProt Q9UKV0: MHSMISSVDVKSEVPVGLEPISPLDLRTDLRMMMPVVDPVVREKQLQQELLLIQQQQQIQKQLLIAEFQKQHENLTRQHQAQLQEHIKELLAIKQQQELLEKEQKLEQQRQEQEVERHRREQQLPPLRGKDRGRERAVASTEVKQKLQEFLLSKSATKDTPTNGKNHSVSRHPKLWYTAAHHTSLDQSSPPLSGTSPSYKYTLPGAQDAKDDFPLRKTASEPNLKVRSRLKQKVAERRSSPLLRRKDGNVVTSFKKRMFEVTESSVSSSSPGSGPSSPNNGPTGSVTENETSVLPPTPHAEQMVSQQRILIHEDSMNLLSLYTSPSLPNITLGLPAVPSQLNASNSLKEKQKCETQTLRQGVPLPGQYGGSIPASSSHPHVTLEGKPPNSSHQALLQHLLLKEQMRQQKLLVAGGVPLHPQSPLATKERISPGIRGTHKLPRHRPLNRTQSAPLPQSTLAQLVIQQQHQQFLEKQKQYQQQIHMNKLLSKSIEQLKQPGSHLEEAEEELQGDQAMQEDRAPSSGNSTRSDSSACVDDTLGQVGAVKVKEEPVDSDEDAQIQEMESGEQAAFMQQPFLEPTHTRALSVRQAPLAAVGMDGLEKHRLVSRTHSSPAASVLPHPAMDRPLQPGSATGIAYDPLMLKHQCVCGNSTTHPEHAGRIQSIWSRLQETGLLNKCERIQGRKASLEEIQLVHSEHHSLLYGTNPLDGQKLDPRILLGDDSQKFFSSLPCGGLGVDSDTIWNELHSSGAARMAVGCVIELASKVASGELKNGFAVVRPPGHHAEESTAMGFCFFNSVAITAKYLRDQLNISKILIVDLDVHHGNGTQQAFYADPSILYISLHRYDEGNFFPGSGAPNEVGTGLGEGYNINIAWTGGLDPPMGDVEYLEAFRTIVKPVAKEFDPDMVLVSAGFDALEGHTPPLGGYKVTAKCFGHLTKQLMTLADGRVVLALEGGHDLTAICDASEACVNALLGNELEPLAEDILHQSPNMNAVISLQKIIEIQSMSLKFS

Biological target: Histone deacetylase 9 (Homo sapiens, UniProt Q9UKV0)
Assay: Inhibition of human recombinant HDAC9 using Boc-Lys(tri-fluoroacetyl)-AMC as substrate by fluorescence based analysis

IC50: 4.78 µM
SMILES: CC(/C=C/C(=O)NO)=C\[C@@H](C)C(=O)c1ccc(N(C)C)cc1 [TRICHOSTATIN]
